This experiment deals with T1, USPSa-H331A (Staphylococcus aureus, UniProt A0A7U7EVR3, H331A).
T1 sequence (A0A7U7EVR3 213-364 H331A): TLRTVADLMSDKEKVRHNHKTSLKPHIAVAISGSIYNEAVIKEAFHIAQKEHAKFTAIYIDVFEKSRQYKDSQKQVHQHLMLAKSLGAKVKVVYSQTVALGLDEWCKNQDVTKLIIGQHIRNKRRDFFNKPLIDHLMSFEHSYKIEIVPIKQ
As to the kind of experiment: MicroScale Thermophoresis (initial fluorescence change) nucleotide binding. The conditions noted are these: His331 to Ala mutant; relative to WT USPSa. As to the method: The ligand-binding specificity of USPSa, the role of USPSa residues in c-di-AMP binding, and the c-di-AMP binding affinity of USP homologs were biochemically determined by MST, using purified WT and mutant proteins. […] For these MST experiments, WT and active-site mutants of His6-USPSa were first fluorescently labeled using a RED-Tris NTA Monolith His-Tag labeling kit (Nanotemper, Technologies, Inc). For labeling, the proteins were diluted to a concentration of 800 nM in binding buffer (50 mM potassium phosphate, pH 8.0, 800 mM NaCl, and 0.05% Tween 20), mixed with an equal volume of RED-Tris-NTA dye (80 nM), and incubated on ice in the dark for 30 min. […]
The samples were then loaded into Monolith standard-treated capillaries in triplicate, and the changes in fluorescence were measured with 40% LED power and 20% IR-laser power for an on-time of 20-s at 23 °C. To determine the binding affinity, the ligand-dependent changes in the intensity of the initial fluorescence, or the thermophoretic mobility, were analyzed according to the law of mass action in a standard fitting mode of MO.Affinity analysis software (version 2.3). […] In the His6-peptide test, a control His6-peptide was used instead of USP in the binding assay described above, and if no change in initial fluorescence occurred, this confirmed the USP-specific binding of ligands. […]
(Microscale thermophoresis detects binding through changes in fluorescence in a small temperature gradient.)

Turning to `Nc1ncnc2c1ncn2[C@@H]1O[C@@H]2COP(=O)(O)O[C@H]3[C@@H](O)[C@H](n4cnc5c(N)ncnc54)O[C@@H]3COP(=O)(O)O[C@H]2[C@H]1O` [c-di-AMP, cyclic-di-adenosine monophosphate], the “loss of relative binding affinity” value was roughly 60%.

For the origin of these results see publication PMC8214093, “Structural basis of KdpD histidine kinase binding to the second messenger c-di-AMP” (The Journal of Biological Chemistry, 2021).
